Data on 8 compounds can be found in PubChem BioAssay AID717 (Columbia University Molecular Screening Center, 2007).

By UniProt entry, the sequences of proteins in these tests, tags left out.
UniProt P34913, whole entry: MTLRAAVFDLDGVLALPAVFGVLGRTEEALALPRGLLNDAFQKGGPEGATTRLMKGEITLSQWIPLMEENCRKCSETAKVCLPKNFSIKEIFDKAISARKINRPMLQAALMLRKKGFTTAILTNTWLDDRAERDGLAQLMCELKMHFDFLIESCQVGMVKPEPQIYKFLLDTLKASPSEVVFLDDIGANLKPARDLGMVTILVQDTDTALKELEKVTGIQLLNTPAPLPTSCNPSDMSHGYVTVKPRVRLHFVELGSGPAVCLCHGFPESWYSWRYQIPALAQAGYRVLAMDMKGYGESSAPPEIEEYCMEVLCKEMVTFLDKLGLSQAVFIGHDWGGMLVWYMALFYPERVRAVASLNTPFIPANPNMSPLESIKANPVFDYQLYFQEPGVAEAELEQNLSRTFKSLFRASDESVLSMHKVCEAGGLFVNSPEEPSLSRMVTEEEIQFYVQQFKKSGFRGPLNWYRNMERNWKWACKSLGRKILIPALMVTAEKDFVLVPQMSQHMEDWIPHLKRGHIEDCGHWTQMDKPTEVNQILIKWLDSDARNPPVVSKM

Molecules are shown by their SMILES. The entries are a selection whose mix differs from that of the whole data set. Calls of active or inactive are those of the source. Cut-off read from the data, not from the text of the source: active = activation above about 37%; inactive = the rest.

In the assay the target is Bifunctional epoxide hydrolase 2 (Homo sapiens) (UniProt P34913). The assay can be described thus: soluble epoxide hydrolase activators, primary screen, biochemical, human sEH (AID 717). As to conditions: purified human sEH enzymatic activity, activator screen; at 2 µM; hits give high values.
Turning to `N/C(=N\O)c1c(N)no[n+]1[O-]`, the activation is inactive: 3.8%. On to `c1ccc(CN2CCC(Nc3ccccc3)CC2)cc1`, for which the activation is inactive: -3.6%. As to `CCC(CO)(C(=O)OC1CN2CCC1CC2)c1ccccc1` (stereo not drawn), the activation is inactive: 1.2%.

Take `CCOc1ncccc1C(=O)NCC1(N2CCOCC2)CCCCC1`: the activation is inactive: 4.8%. The result for `O=C(NCC1(N2CCOCC2)CCCCC1)c1cc2ccccc2o1` reads inactive: 8.7%; that for `O=C(OC1CN2CCC1CC2)C1c2ccccc2Oc2ccccc21` (stereo not drawn), inactive: 7.6%. With `O=C(NCC1(N2CCOCC2)CCCCC1)c1cc(=O)[nH]c2ccccc12`, the activation is inactive: -2.8%. Consider `CN1CCC(Nc2cccc(F)c2)CC1`, for which the activation was inactive: 13.1%.
